Assay results published in patent US20250127698A1, “Hair Perming Compositions With Amine Derivatives” (ELC Management LLC, priority 2023, published 2025).

Columns and labels:
[1] = DSC keratin denaturation temperature change after straightening treatment; design: species or system human; conditions: Type 3 Caucasian hair after straightening; larger ΔT indicates more damage
Text: This damage occurs at the level of keratin proteins.
Untreated hair was used as a control.
A larger ΔT indicates more damage.

[2] = DSC keratin denaturation temperature change after curling treatment; conditions: Type 1 Caucasian hair after curling treatment; larger ΔT indicates more damage

N.O [Ammonium hydroxide, reference compound]
ΔT (TUntreated−TAlkalizer, keratin denaturation temperature) [1]: 0.66 °C | ΔT (TUntreated−TAlkalizer, keratin denaturation temperature) [2]: 1.96 °C
